Measured values from patent US7119182B1, “Recombinant thrombin receptor and related pharmaceuticals” (The Regents of the University of California, priority 1991, dated 2006).

Molecular target: T1, thrombin receptor (Homo sapiens, UniProt P25116)
T1 construct: In this assay, washed human platelets are prepared by the method of Baenzinger; endogenous in cells; host or cells: washed human platelets
T1 sequence (P25116 22-425): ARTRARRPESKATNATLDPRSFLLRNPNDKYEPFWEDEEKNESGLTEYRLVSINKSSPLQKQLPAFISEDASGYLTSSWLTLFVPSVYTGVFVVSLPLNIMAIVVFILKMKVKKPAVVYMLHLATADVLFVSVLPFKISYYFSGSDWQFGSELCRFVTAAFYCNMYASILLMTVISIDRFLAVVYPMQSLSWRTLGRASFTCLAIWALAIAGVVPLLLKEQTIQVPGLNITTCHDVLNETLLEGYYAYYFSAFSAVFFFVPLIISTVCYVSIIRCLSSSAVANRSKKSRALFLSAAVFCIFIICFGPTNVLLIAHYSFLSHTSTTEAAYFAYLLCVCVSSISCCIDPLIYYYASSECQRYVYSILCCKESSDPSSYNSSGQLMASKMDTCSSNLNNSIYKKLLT
Test: Platelet activation/aggregation assays in the presence of thrombin, antagonist peptides
Format: cell-based
Details: platelets, read-out: IC50 (50% inhibition of activation or aggregation)
Method: Platelet Aggregation: In this assay, washed human platelets are prepared by the method of Baenzinger, M. G., Meth Enzymol (1974) 31:149–155, or as described by Charo, I. F., et al., J Clin Invest (1977) 63:866–873. To induce aggregation, approximately 1–20 nM thrombin or EC50 of an alternate agonist is used to stimulate aggregation in control reactions; the results are followed by lumiaggregometry. Candidate agonists at various concentrations may be used in place of thrombin to stimulate aggregation. Candidate inhibitors are added to the reaction mixture in addition to the thrombin in order to assess their ability to prevent aggregation.
Washed platelets are suspended in modified Tyrode's buffer, pH 7.4 with 2 mM magnesium and 1 mM calcium at a concentration of 10^8 platelets/ml. […]
Platelet Aggregation Assay Using Microtiter Plates: Thrombin- or agonist-mediated platelet aggregation as measured with washed platelets in 96-well microtiter plates was performed as described (Fratantoni, J. C. et al., Am J Clin Pathol (1990) 94:613–617). The ability of hybridoma supernatants, purified MoAbs or peptide antagonists to block the thrombin receptor was assessed in this assay with various concentrations of antibodies or antagonists. […]

IC50: 500 to 1000 µM
Compound: CSCCC(=O)N[C@@H](Cc1ccccc1)C(=O)N[C@@H](CC(C)C)C(=O)N[C@@H](CC(C)C)C(=O)N[C@@H](CCCNC(=N)N)C(N)=O [[SMe-Mpr]-FLLR-NH2]
